Test results: patent publication US20200024315A1, “ANTIMICROBIAL PEPTIDES AND METHODS OF TREATING GRAM-NEGATIVE PATHOGENS” (THE REGENTS OF THE UNIVERSITY OF COLORADO, a body corporate, priority 2017, published 2020)

Assay: Circular dichroism (CD) spectroscopy, characterization of helical structure
Assay type: physicochemical
Conditions: difference 50% TFE minus aqueous buffer

Ac-ALKKLLSTLSSA(Orn)SS(Orn)LSTLLKALKK-amide [D56]
inducible helical structure Δ[Θ]222 nm TFE-Aqueous: 392
